Target: GRP receptor (Rattus norvegicus, UniProt P52500)
Assay: Amylase release from rat pancreatic acini (alone or Bn-stimulated)
Assay type: cell-based
Parameters: from tissue; host or cells: dispersed pancreatic acini
Protocol: pancreatic acini or [^3 H]myo[2H]inositolloaded NMBR transfected cell
were incubated either with no additives, the somatostatin octapeptide
analog, Bn, or NMB, or a combination for 30 min at 37° C.. Amylase
release from pancreatic acini was expressed at the indicated percent of
the total cellular amylase released during the incubation. [^3 H]IP i
expressed in dpm's. To test for inhibitory effects, the effect of
somatostatin analog (10 μM) was determined on 0.3 nM Bnstimulated

Chains of the proteins cited; added tags and fusions are not shown. Lines headed by an entry give the natural chain unless they say otherwise; changes in a name come on top.
UniProt P52500: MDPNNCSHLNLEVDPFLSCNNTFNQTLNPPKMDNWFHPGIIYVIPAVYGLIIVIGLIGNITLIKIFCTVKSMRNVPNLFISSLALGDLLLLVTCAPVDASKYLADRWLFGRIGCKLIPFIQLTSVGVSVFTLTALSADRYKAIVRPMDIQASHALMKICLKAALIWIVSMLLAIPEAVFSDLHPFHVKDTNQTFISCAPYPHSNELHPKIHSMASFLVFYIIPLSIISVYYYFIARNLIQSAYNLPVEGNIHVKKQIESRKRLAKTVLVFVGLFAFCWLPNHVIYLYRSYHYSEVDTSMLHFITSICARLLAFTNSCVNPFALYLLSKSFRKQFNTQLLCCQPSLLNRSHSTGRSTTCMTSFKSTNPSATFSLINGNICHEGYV

With `CC(C)[C@@H]1NC(=O)[C@H](CCCCN)NC(=O)[C@@H](Cc2c[nH]c3ccccc23)NC(=O)[C@H](Cc2ccc3ccccc3c2)NC(=O)[C@@H](NC(=O)[C@H](N)Cc2ccccc2)CSSC[C@@H](C(=O)N[C@H](C(N)=O)[C@@H](C)O)NC1=O` [Analog #18] as the compound, how does the “Amylase Release, analog Alone (10 μM)” value (analog 10 μM alone, control 4 ± 1) read?
Its value is 3 ± 1 % total.

What about the “Amylase Release, analog Plus Bn (0.3 nM)” value (analog 10 μM plus Bn 0.3 nM, Bn without analog 15 ± 1) of the same compound?
The value was 14 ± 1 % total.

What about the IC50 (read-out: IC50 Amylase Release, GRP Receptor, Rat Pancreatic Acini) of the same compound?
The IC50 was over 10 µM.
